Data on 5 compounds can be found in patent US7259172B2, “Inhibitors of β-lactamase” (priority 1999, dated 2007).

Like-named read-outs stand apart in the source and are kept apart here.

`O=[N+]([O-])c1ccc(/C=C/C(NS(=O)(=O)c2cccs2)P(=O)(O)O)cc1` (centres unmarked) came in with a Log P (Table 2) of 0.58.
Regarding `O=P(O)(O)CNS(=O)(=O)c1cc2ccccc2o1`, the Log P (Table 1, tested form: Na salt) is -0.68.
In turn, `O=P(O)(CNS(=O)(=O)c1cc2ccccc2s1)OCc1ccccc1` gave a Log P (Table 1) of -0.57.
On to `O=P(O)(O)CNS(=O)(=O)c1cc2ccccc2s1`, for which, where the note is “Table 1”, the Log P was -1.7.
For `O=P(O)(O)C(CCc1cccnc1)NS(=O)(=O)c1cccs1` (centres unmarked), the Log P (Table 2) is 0.78.
